Results: PubChem BioAssay AID2300 (The Scripps Research Institute Molecular Screening Center, 2010)
The entries are a selection whose mix differs from that of the whole data set. The source made the active and inactive calls.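 The calls were made as follows: active = percent inhibition above the cutoff of mean plus 3 SD of all tested compounds, set per screening campaign (cut at about 20% in these data); inactive = the rest.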

Protein sequences, listed by entry. Tags and fused reporters are not part of them. Lines headed by an entry give the natural chain unless they say otherwise; changes in a name come on top.
UniProt Q9Y5X4: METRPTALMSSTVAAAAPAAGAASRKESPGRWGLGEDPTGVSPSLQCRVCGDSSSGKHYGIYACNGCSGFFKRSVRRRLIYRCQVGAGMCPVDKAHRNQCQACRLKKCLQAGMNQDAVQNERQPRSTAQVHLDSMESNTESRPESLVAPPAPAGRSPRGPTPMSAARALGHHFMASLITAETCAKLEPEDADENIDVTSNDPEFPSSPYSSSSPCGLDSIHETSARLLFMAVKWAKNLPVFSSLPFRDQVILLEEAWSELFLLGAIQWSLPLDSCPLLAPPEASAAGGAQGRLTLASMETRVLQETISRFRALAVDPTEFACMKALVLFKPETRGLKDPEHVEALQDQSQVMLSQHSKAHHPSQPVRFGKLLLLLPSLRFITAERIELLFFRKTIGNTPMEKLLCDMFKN

Target: Photoreceptor-specific nuclear receptor (Homo sapiens) (UniProt Q9Y5X4)
Experiment: inhibitors of NR2E3-RetCOR corepressor binding, primary screen, NR2E3 agonist project, biochemical, TR-FRET, GST-NR2E3, biotin-RetCOR (AID 2300);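 also: 0% = DMSO wells and 100% = biotin wells as full block of FRET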
Settings: 1536-well, at 4.78 µM, hits give high values
Procedure, shortened: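 Material: NR2E3–RetCOR corepressor complex / Incubation: Compound–protein incubation for 5 h at 4 °C / Dosing: compound at 4.8 µM, single dose / Detection: time-resolved FRET / Benchmarks: high control biotin, low control 0.6% DMSO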

SMILES	inhibition of corepressor binding
O=P(Nc1nc2ccc(Cl)cc2s1)(c1ccccc1)c1ccccc1	inactive: 0.82%
CC(=O)Nc1ccc([As](=O)(O)O)cc1	inactive: 0.66%
O=C(O)c1ccccc1[As](=O)(O)O	inactive: 1.23%
CN(C(=O)Cc1ccc(Cl)c(Cl)c1)[C@H]1CCCC[C@@H]1N1CCCC1	inactive: 3.07%
Cc1ccc(NP(=O)(Oc2ccccc2F)Oc2ccccc2F)nc1	inactive: 3.39%
Cc1cc(SC(NC(=O)c2ccc(F)cc2)C(Cl)(Cl)Cl)ncn1 (centres undefined)	inactive: -0.72%
CCOP(=O)(Nc1ccccc1)OCC	inactive: 0.14%
O=[N+]([O-])c1cc([N+](=O)[O-])c(CCN2CCOCC2)c([N+](=O)[O-])c1	inactive: -1.4%
CCN(N=Nc1nonc1N)c1nonc1N	inactive: -0.98%
Cc1ccc(N/C(=N/P(=O)(N2CCOCC2)N2CCOCC2)N2CCOCC2)cc1	inactive: -0.19%
CN(C(=O)Cc1ccc(Cl)c(Cl)c1)[C@H]1CCCC[C@H]1N1CCCC1	inactive: 0.59%
NC(=O)c1cc([N+](=O)[O-])cc([N+](=O)[O-])c1N	inactive: 1.48%
CN1CCCC(OC(=O)C(c2ccccc2)c2ccccc2)C1 (centres undefined)	inactive: 1.21%
Clc1ccc(Cl)c(NC2=NCC(CBr)S2)c1 (centres undefined)	inactive: 2.05%
Cc1ccc(OP(=O)(Nc2nccs2)Oc2ccc(C)cc2)cc1	inactive: 0.11%
COc1ccccc1OP(=O)(Nc1ccc(C)cn1)Oc1ccccc1OC	inactive: 4.13%
O=C(NC(Sc1ccncn1)C(Cl)(Cl)Cl)c1ccccc1 (centres undefined)	inactive: -0.07%
Cc1c2non([O-])c-2c(C)[n+](=O)[n+]1[O-]	inactive: 0.83%
Oc1ccccc1CNc1ccccn1	inactive: 1.09%
Nc1cc(N)c2nonc2c1[N+](=O)[O-]	inactive: 1.88%
CC(C)CC(=O)NC(Sc1ccc(Cl)cc1)C(Cl)(Cl)Cl (centres undefined)	inactive: -0.21%
COc1ccc(C2=NCC(CBr)S2)cc1 (centres undefined)	inactive: -0.57%

SMILES	inhibition of corepressor binding
O=[N+]([O-])c1cc([N+](=O)[O-])c(CCNc2ccccc2)c([N+](=O)[O-])c1	inactive: 3.49%
CCc1nc2c(n1)c1c(non1O)c1c2no[n+]1[O-]	inactive: -0.67%
Cc1ccc(NP(=O)(Oc2ccccc2)Oc2ccccc2)nc1	inactive: 5.39%
CC(=O)N1C2C3N(C(C)=O)C1C1N(C(C)=O)C(C(N1C(C)=O)N3C(C)=O)N2C(C)=O	inactive: -1.25%
O=[N+]([O-])c1cccc2n[nH]nc12	inactive: -2.7%
CCN(/C(=N/P(=O)(N1CCOCC1)N1CCOCC1)N1CCOCC1)c1ccc(OC)cc1	inactive: 3.89%
C[N+]1=C2C=CC=CC=C2SC12C([N+](=O)[O-])=CC([N+](=O)[O-])=C[C-]2[N+](=O)[O-] (centres undefined)	inactive: -0.83%
Nc1ccc([As](=O)(O)c2ccc(N)cc2)cc1	inactive: -1.85%
CC1CCN(C(=O)Oc2c(Cl)cc(Cl)c3cccnc23)CC1	inactive: -0.58%
CN(C)C(=O)OCCc1n(C)cc[n+]1C	inactive: -1.05%
CC(C)=N/N=C(\N)N[N+](=O)[O-]	inactive: 3.67%
O=C(Nc1cc([As](=O)(O)O)ccc1O)c1ccccc1	inactive: -1.94%
O=[N+]([O-])c1ncn(CCn2ncnc2[N+](=O)[O-])n1	inactive: 0.94%
CC(C)(C)C(=O)NC(Sc1ccncn1)C(Cl)(Cl)Cl (centres undefined)	inactive: -1.03%
O=[N+]([O-])c1cccc(NC2=NCC(CBr)S2)c1 (centres undefined)	inactive: -2.14%
CN(C)C1(CNC(=O)c2ccc(Cl)c(S(N)(=O)=O)c2)CCCCC1	inactive: 1.56%
O=P(Nc1ccccn1)(c1ccc(Br)cc1)c1ccc(Br)cc1	inactive: 3.49%
C[C@H]1OP(=O)(Oc2ccccc2)[C@H](O)[C@H](O)[C@H]1N=[N+]=[N-] (some centres undefined)	inactive: 0.05%
O=P(Nc1nc2ccccc2s1)(c1ccccc1)c1ccccc1	inactive: -1.33%
O=[As](O)(c1ccccc1)c1ccc(O)cc1	inactive: -0.09%
CC(=O)NC(SC(=S)N(C)C)C(Cl)(Cl)Cl (centres undefined)	inactive: -0.77%
O=[N+]([O-])c1ncn(CCn2cnc([N+](=O)[O-])n2)n1	inactive: 3.44%

SMILES	inhibition of corepressor binding
O=[N+]([O-])c1ccc(O)c(/C=N/Nc2ccc([N+](=O)[O-])cc2[N+](=O)[O-])c1	inactive: 4.05%
O=C(OC1CN2CCC1CC2)c1cccc(Cl)c1 (centres undefined)	inactive: 3.16%
C(Cc1nn[nH]n1)Cc1nn[nH]n1	inactive: -0.29%
Nc1ccc([As](=O)(O)c2ccc([N+](=O)[O-])cc2)cc1	inactive: 2.21%
O=P(Nc1nccs1)(c1ccccc1)c1ccccc1	inactive: -2.49%
CC(C)C(=O)NC(Sc1ccccc1)C(Cl)(Cl)Cl (centres undefined)	inactive: 0.47%
c1nnnn1CCn1cnnn1	inactive: -3.04%
CCOc1ccc(C2=NCC(CBr)S2)cc1 (centres undefined)	inactive: -1.81%
O=P1(Nc2nc3ccc(Cl)cc3s2)COc2ccccc2O1 (centres undefined)	inactive: 0.65%
CC(C)(C)C(=O)NC(Sc1ccccc1)C(Cl)(Cl)Cl (centres undefined)	inactive: 1.66%
C[C@H]1OP(=O)(Oc2ccccc2)C[C@@H]2O[C@@H]21 (some centres undefined)	inactive: -1.83%
C[C@@H]1C=CCP(=O)(Oc2ccccc2)O1 (some centres undefined)	inactive: -0.87%
Cc1ccccc1CN(C)C(=O)COC(=O)C(O)(c1ccccc1)c1ccccc1	inactive: 1.51%
CC(=O)c1ccc(N2CC2c2ccncc2)cc1 (centres undefined)	inactive: -2.62%
CC(=O)Nc1ccc(Oc2c([N+](=O)[O-])cc([N+](=O)[O-])cc2[N+](=O)[O-])cc1	inactive: 6.86%
CC(=O)Nc1ccc([As](=O)(O)O)c(O)c1	inactive: 1.32%
Cc1ccc(NP(=O)(Oc2cccc(C)c2)Oc2cccc(C)c2)nc1	inactive: 3.1%
CCOC(=O)NC(Sc1ccccc1)C(Cl)(Cl)Cl (centres undefined)	inactive: 2.29%
c1ccc(-c2nn[nH]n2)c(-c2nn[nH]n2)c1	inactive: -1.6%
O=C(NC1CCS(=O)(=O)C1)NP(=S)(Oc1ccccc1)Oc1ccccc1 (centres undefined)	inactive: 2.79%
